From PubChem BioAssay
Hits are enriched below; roughly 2.2% of the tested compounds scored in any of these assays.
UUG fidelity = modulators of start codon recognition fidelity in yeast; S. cerevisiae UUG-firefly luciferase reporter, luminescence/redox ratio; AID 602363; 350,000 tested, 0.13% active; activity score, % at 18.7 µM;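 active = replicate mean at a twofold rise or more, about +100% in these data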;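 also: firefly luciferase made from a UUG start codon reports start codon fidelity; reporter light over untreated wells divided by growth signal over untreated wells; some hits fall short of that in this replicate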
SIRT5 block = blocks human SIRT5 desuccinylation of peptide. 330,000 tested, 1.1% active. Purified SirT5, succinyl-peptide AMC, trypsin-coupled fluorescence. inhibition, % at 15 µM; in the data active means inhibition above about 15%
FGF22 binding-1 = shifts melting point of recombinant human FGF22; recombinant FGF22 thermal shift, SYPRO orange fluorescence; percent of sucrose octasulfate shift, DMSO zero; activity (Tm shift, normalised), % at 9.99 µM; Q9HCT0; 340,000 tested, 1.5% active;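 active means mean Tm shift, scaled 0 neutral to 100 positive control, at about 1.3% or above, every replicate too, limit read from the data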
S100A4 MyoIIA = inhibitors of human S100A4 binding to myosin IIA peptide; S100A4/TAMRA-MyoIIA peptide fluorescence polarization; inhibition, % at 10.7 µM; 360,000 tested, 0.14% active; AID 652163;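 active means mean inhibition of at least 70% across replicates, with every replicate also reaching that level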
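Assay system: human S100A4 monomer with TAMRA-labelled myosin IIA peptide / Buffer or medium: Calcium-containing HEPES buffer, pH 7.2 / Reagent: TAMRA-labelled myosin IIA heavy-chain peptide probe, 5 nM / Compound: one dose per compound / Timing: polarization read 5 min after assay mix addition, stable 5–60 min / Benchmarks: neutral control DMSO, positive control TFP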
ERp5 block = inhibitors of human ERp5; Q15084; ERp5 insulin aggregation, absorbance 650 nm, 90 min; inhibition, % at 9.99 µM; 350,000 tested, 0.05% active; AID 651711;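 active means mean replicate inhibition above about 25%, with every replicate also reaching it, limit read from the data, passing the limit was not always enough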
PDI inh = PDI (human) enzyme inhibition; AID 588391; P07237; 350,000 tested, 0.052% active; PDI insulin aggregation turbidity, A650, 90 min; inhibition, % at 10 µM;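 active means mean inhibition across replicates of 30% or more, whatever share of single replicates reach that level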
FGF22 binding-2 = binders of human FGF22 by thermal shift; 1,000 tested, 2% active; AID 720646; recombinant FGF22 thermal shift, SYPRO orange fluorescence; thermal shift activity, °C (ΔTm) at 38 µM; shares compounds with FGF22 binding-1;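 active means fitted rise in melting shift crosses a set limit at or below the top valid dose tested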
FGF22 TSA DP = FGF22 (human) binding by thermal shift. AID 743017. 50 tested, under 10 active. Thermal shift assay, SYPRO orange, melting temperature shift. shares compounds with FGF22 binding-1. Tm shift (activity), % at 38 µM;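 active means compounds whose fitted dose curve of melting temperature shift rises past a set threshold within the tested doses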
SYPRO no-protein = compound-only SYPRO artifact for FGF22 binders. shares compounds with FGF22 binding-1. AID 743019. compound-only SYPRO orange thermal shift counter-screen, no protein. AC50, µM (series often up to 38 µM). 1,000 tested, 2% active;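 active means rising signal whose fitted curve reaches the 0.54 level within the top valid dose, showing a melting point, actives reach about 13 µM in these data; inactive means the rest, including activity in the opposite direction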; further: value is where the raw curve crosses a fixed level and not half-maximal
An asterisk follows results filed as active; [ ] = dose if it differs, or a comment.

For COC(=O)C(C)Oc1cc(OC(C)C(=O)OC)c2c(C)c(Cl)c(=O)oc2c1 (stereo not drawn) the results were UUG fidelity 3.9, SIRT5 block -51.4, FGF22 binding-1 1.6*, S100A4 MyoIIA 6.4, ERp5 block -7.6, PDI inh -11.3 and SYPRO no-protein inactive.
For COc1ccc2c3c([nH]c2c1)[C@H](CO)N(C(C)=O)CC31CN(C(=O)c2ccc3c(c2)OCO3)C1 the results were SIRT5 block -1.5, FGF22 binding-1 26.1*, S100A4 MyoIIA -0.4, ERp5 block -2.1, FGF22 binding-2 0.056 and SYPRO no-protein inactive.
Screening COc1ccc2c3c([nH]c2c1)[C@@H](CO)N(C(C)=O)CC31CCN(C(=O)c2ccc3c(c2)OCO3)CC1 returned SIRT5 block -1.6, S100A4 MyoIIA -7.9 and ERp5 block 4.7.
For C/C=C/c1ccc([C@H]2[C@@H](CO)N(C(=O)CC)C23CN(C(=O)c2ccccc2)C3)cc1 the results were SIRT5 block -0.1, FGF22 binding-1 1.4*, S100A4 MyoIIA 2.9, ERp5 block -1.4, FGF22 binding-2 0.075 and SYPRO no-protein inactive.
`C/C=C/c1ccc([C@@H]2[C@H](CO)N(CC3CCOCC3)C23CN(C(=O)COC)C3)cc1` gave SIRT5 block 2.5, S100A4 MyoIIA -3.8 and ERp5 block 2.1.
For C/C=C/c1ccc([C@H]2[C@@H](CO)N(CC3CCOCC3)C23CN(C(=O)COC)C3)cc1 the results were SIRT5 block -4.3, FGF22 binding-1 1.7*, S100A4 MyoIIA -2.6, ERp5 block -3.1, FGF22 binding-2 0.184[42 µM] and SYPRO no-protein inactive.
C[C@@H]1CN([C@H](C)CO)C(=O)c2cc(NC(=O)Nc3ccc(F)cc3)ccc2O[C@@H](C)CCCCO[C@H]1CN(C)Cc1ccc(C(F)(F)F)cc1 was read as UUG fidelity 0.9, SIRT5 block -0.1, FGF22 binding-1 -0.5, S100A4 MyoIIA 1.1 and ERp5 block 3.4.
For COc1cccc(C#Cc2cnc3c(c2)C(=O)N([C@@H](C)CO)C[C@H](C)[C@H](CN(C)C(C)=O)O3)c1 the results were UUG fidelity 11.1, SIRT5 block 3.9, FGF22 binding-1 -0.1, S100A4 MyoIIA -6.8 and ERp5 block 4.1.
CCN1C/C(=C/c2cccs2)c2nc3ccccc3c(C(=O)O)c2C1 was read as UUG fidelity -5.3, SIRT5 block -5.1, FGF22 binding-1 1.8*, S100A4 MyoIIA -4.6, ERp5 block -1.2, PDI inh 0.9, FGF22 binding-2 0.186, FGF22 TSA DP 0.2 and SYPRO no-protein inactive.
Screening CC(C)NC(=O)N[C@@H]1CC[C@@H](CC(=O)O)O[C@@H]1CO returned UUG fidelity -12.0, SIRT5 block 6.5, FGF22 binding-1 0.8, S100A4 MyoIIA 0.4 and ERp5 block -10.6.
For CC(C)NC(=O)N[C@H]1CC[C@@H](CC(=O)O)O[C@@H]1CO the results were UUG fidelity -9.6, SIRT5 block 0.7, FGF22 binding-1 1.5*, S100A4 MyoIIA 3.1, ERp5 block -1.2, FGF22 binding-2 0.097[42 µM] and SYPRO no-protein inactive.
For Cc1ccc(S(=O)(=O)N[C@@H]2C=C[C@H](CC(=O)NCCN3CCCCC3)O[C@H]2CO)cc1 the results were SIRT5 block -0.5, FGF22 binding-1 0.2, S100A4 MyoIIA -2.8 and ERp5 block -2.9.

3 records picked at random from the list so far, as already listed:
For Cc1ccc(S(=O)(=O)N[C@@H]2C=C[C@H](CC(=O)NCCN3CCCCC3)O[C@H]2CO)cc1 the results were SIRT5 block -0.5, FGF22 binding-1 0.2, S100A4 MyoIIA -2.8 and ERp5 block -2.9.
For COc1ccc2c3c([nH]c2c1)[C@H](CO)N(C(C)=O)CC31CN(C(=O)c2ccc3c(c2)OCO3)C1 the results were SIRT5 block -1.5, FGF22 binding-1 26.1*, S100A4 MyoIIA -0.4, ERp5 block -2.1, FGF22 binding-2 0.056 and SYPRO no-protein inactive.
`C/C=C/c1ccc([C@@H]2[C@H](CO)N(CC3CCOCC3)C23CN(C(=O)COC)C3)cc1` gave SIRT5 block 2.5, S100A4 MyoIIA -3.8 and ERp5 block 2.1.

More records follow:
`Cc1noc(C)c1NC(=O)N[C@@H]1C=C[C@H](CC(=O)Nc2ccc(-c3ccccc3)cc2)O[C@@H]1CO` gave SIRT5 block -2.9, FGF22 binding-1 1.9*, S100A4 MyoIIA 4.3, FGF22 binding-2 0.018[42 µM] and SYPRO no-protein inactive.
Screening COc1cc(NC(=O)c2cccs2)c(OC)cc1NC(=O)Nc1ccc(F)cc1 returned UUG fidelity -9.5, SIRT5 block -3.8, FGF22 binding-1 1.4*, S100A4 MyoIIA -0.4, ERp5 block 0.0, PDI inh -1.3, FGF22 binding-2 -0.01 and SYPRO no-protein inactive.
For COc1ccccc1NC(=O)c1cccs1 the results were UUG fidelity -26.3 and PDI inh -3.6.
For CC=Cc1ccc2n(c1=O)C[C@H]1[C@H](CO)[C@@H](C(=O)NCc3ccccc3F)N(CCC)[C@@H]21 (mixture of isomers) the results were SIRT5 block 8.0, FGF22 binding-1 0.0, S100A4 MyoIIA 2.3 and ERp5 block -0.4.
For CCC(=O)N[C@@H]1CC[C@@H](CC(=O)NCc2ccc(OC)cc2)O[C@@H]1CO the results were UUG fidelity -3.3, SIRT5 block -4.0, FGF22 binding-1 0.0, S100A4 MyoIIA -0.5 and ERp5 block 2.6.
Cc1cccc(NC(=O)Nc2ccc(S(N)(=O)=O)cc2)c1 was read as UUG fidelity -13.3, SIRT5 block 3.0, FGF22 binding-1 1.7*, S100A4 MyoIIA -1.7, ERp5 block 1.1, PDI inh -0.4, FGF22 binding-2 0.096 and SYPRO no-protein 10.9µM*.
Screening O=C1Nc2cc(Cl)c(Cl)cc2N(O)N1c1cccc(Cl)c1 returned PDI inh -4.3.
O=C1Nc2cc(Cl)c(Cl)cc2N(O)N1c1ccc(Cl)cc1 was read as UUG fidelity -10.5, SIRT5 block -2.0, FGF22 binding-1 28.0*, S100A4 MyoIIA -9.2, ERp5 block -0.5, PDI inh -5.4, FGF22 binding-2 0.099 and SYPRO no-protein inactive.
COc1ccc2c3c([nH]c2c1)[C@H](CO)N(C(=O)c1cccnc1)CC31CCN(C(=O)Nc2cccc(F)c2)CC1 was read as SIRT5 block 4.8, FGF22 binding-1 0.0, S100A4 MyoIIA 9.4 and ERp5 block 1.4.
Screening CCC(=O)N1CC2(C1)CN(CC1CCCCC1)[C@@H](CO)c1c2c2ccc(OC)cc2n1C returned SIRT5 block 1.6, FGF22 binding-1 -0.3, S100A4 MyoIIA -10.2 and ERp5 block -2.6.
For COc1ccc(CCC(C)NC(=O)Cc2ccc(OC)c(OC)c2)c(OC)c1 (stereo not drawn) the results were UUG fidelity -8.1, SIRT5 block -6.6, FGF22 binding-1 28.9*, S100A4 MyoIIA -27.0, ERp5 block -0.1, PDI inh -4.4, FGF22 binding-2 0.073 and SYPRO no-protein inactive.
COc1ccc(C(=O)Cc2ccc(OC)c(OC)c2)cc1 was read as UUG fidelity -5.1 and PDI inh -4.2.
